Assay: Antagonist activity at CCR2 in human THP1 cells assessed as inhibition of MCP1-induced chemotaxis after 3 hrs

Nc1cccnc1[C@H]1CC[C@H](N2CC(NC(=O)CNC(=O)c3cccc(C(F)(F)F)c3)C2)CC1
IC50: 35 nM
